Source: patent US11912668B2, “GCN2 and perk kinase inhibitors and methods of use thereof” (Deciphera Pharmaceuticals, LLC, priority 2020, dated 2024)

By UniProt entry, the sequences of proteins in these tests, tags left out. Chains listed by the source or under a name are the forms on record and can include a tag or linker. Residues count along the entry.
UniProt Q9NZJ5, 564-1116 with tags or gaps limits assumed: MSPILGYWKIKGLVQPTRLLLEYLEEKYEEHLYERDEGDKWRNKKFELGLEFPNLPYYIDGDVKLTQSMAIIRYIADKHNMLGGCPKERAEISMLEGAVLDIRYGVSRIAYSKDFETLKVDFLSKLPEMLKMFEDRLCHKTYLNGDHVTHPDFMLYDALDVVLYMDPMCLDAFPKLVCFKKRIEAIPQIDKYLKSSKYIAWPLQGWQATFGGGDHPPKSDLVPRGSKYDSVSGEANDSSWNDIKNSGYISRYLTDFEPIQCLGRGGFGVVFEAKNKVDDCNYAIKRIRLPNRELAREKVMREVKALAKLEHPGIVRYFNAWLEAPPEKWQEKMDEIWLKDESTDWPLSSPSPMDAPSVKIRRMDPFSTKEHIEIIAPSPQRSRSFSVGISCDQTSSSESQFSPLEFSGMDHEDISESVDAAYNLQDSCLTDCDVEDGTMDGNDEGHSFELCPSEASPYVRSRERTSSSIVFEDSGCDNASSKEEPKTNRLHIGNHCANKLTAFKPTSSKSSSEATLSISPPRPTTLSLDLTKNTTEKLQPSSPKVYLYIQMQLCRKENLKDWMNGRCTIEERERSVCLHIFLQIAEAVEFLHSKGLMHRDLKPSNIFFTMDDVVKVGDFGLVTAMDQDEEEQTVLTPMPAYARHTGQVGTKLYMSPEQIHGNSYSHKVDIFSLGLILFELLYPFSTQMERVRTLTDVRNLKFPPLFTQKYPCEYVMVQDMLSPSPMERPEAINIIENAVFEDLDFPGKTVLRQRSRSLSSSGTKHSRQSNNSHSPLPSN
UniProt Q9P2K8, whole entry: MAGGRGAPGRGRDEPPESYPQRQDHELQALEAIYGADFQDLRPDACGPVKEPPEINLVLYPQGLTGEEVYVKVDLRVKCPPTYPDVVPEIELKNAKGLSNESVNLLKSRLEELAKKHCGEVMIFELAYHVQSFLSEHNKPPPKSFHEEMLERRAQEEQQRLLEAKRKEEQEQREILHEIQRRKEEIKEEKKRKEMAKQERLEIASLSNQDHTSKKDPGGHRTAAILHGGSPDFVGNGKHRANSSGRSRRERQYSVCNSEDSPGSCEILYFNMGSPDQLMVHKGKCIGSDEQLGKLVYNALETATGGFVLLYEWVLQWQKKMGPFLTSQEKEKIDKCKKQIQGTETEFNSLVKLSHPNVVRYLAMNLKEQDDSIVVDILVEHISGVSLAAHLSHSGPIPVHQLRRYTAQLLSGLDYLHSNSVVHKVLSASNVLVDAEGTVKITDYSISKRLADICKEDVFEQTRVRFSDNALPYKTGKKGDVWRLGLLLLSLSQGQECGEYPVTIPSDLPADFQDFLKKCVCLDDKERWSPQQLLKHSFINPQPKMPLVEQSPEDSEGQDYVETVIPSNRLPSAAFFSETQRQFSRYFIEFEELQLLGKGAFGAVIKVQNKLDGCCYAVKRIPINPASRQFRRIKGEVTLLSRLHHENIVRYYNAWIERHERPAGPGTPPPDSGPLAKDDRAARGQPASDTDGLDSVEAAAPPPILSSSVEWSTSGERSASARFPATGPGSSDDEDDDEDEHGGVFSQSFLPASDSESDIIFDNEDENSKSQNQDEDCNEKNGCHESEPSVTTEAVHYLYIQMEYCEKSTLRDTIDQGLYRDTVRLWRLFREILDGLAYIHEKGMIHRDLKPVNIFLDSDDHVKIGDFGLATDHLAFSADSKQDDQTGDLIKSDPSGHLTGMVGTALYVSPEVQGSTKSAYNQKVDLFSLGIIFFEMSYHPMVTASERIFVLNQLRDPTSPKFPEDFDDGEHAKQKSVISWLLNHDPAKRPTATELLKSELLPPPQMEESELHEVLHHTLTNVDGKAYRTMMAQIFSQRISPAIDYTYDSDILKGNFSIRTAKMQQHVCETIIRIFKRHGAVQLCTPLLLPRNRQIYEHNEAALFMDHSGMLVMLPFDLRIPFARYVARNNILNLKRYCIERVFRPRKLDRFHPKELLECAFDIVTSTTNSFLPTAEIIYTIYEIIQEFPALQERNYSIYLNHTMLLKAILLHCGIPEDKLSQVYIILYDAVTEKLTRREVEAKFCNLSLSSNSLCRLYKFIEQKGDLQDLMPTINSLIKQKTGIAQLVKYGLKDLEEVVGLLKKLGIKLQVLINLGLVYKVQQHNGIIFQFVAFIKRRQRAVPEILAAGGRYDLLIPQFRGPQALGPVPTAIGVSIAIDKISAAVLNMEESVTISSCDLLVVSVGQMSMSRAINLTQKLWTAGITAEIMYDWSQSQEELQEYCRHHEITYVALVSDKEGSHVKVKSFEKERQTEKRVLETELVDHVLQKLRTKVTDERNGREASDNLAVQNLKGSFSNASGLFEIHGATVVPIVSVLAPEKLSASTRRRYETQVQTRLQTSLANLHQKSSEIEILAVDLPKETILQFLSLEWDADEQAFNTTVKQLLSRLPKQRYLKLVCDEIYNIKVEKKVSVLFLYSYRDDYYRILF

How the values were obtained:
PERK kinase = PERK kinase (Homo sapiens (Human), UniProt Q9NZJ5); assay: Biochemical assay for PERK (coupled pyruvate kinase/lactate dehydrogenase assay); conditions: read-out: PERK IC50; 1 mM ATP, rate from 2-3 h time frame
Procedure: Activity of PERK kinase was determined spectroscopically using a coupled pyruvate kinase/lactate dehydrogenase assay that continuously monitors the ATP hydrolysis-dependent oxidation of NADH (e.g., Schindler et al. Science (2000) 289: 1938-1942). Assays were conducted in 384-well plates (100 μL final volume) using 10 nM PERK (from Beryllium), 0.25 mg/mL Myelin Basic Protein substrate, 1.5 units pyruvate kinase, 2.1 units lactate dehydrogenase, 1 mM phosphoenol pyruvate, 0.28 mM NADH and 1 mM ATP in assay buffer (100 mM Tris, pH 7.5, 15 mM MgCl2, 0.5 mM DTT, 0.004% (w/v) BSA, and 0.004% Triton X-100). Inhibition of PERK was measured by adding serial diluted test compound (final assay concentration of 1% DMSO). A decrease in absorption at 340 nm was monitored continuously for 6 hours at 30° C. on a multi-mode microplate reader (BioTek). The reaction rate was calculated using the 2-3 h time frame. The reaction rate at each concentration of compound was converted to percent inhibition using controls (i.e. reaction with no test compound and reaction with a known inhibitor) and IC50 values were calculated using software routines in Prism (GraphPad software).

CCRF-CEM leukemia cells = assay: CCRF-CEM ASNase cell proliferation assay, phenotypic assay for cellular inhibition of GCN2; conditions: read-out: CCRF-CEM ASNase Cell Proliferation; ASNase treated CCRF-CEM cells, 1 mU/mL ASNase, 72 h
Procedure: CCRF-CEM leukemia cells (catalog #CCL-116) were obtained from the American Type Culture Collect (ATTC, Manassas, VA). Cells were grown in RPMI-1640 medium supplemented with 10% heat-inactivated fetal bovine serum (Invitrogen, Carlsbad, CA) and 1% Penicillin/Streptomycin/L-Glutamine at 37° C., 5% CO2, and 95% humidity. Cells were expanded until reaching one million cells per mL at which time they are subcultured or harvested for assay use. Ten thousand cells per well in 200 μL RPMI-1640 supplemented with 10% heat-inactivated fetal bovine serum and 1% Penicillin/Streptomycin were dispensed into a 96-well black clear bottom plate. A serial dilution of test compound and 1 mU/mL ASNase was added in triplicate and plates were incubated for 72 h at 37° C., 5% CO2, and 95% humidity. At the end of the incubation, 40 μL of a […] solution of resazurin (Sigma, St. Louis, MO) in PBS was added to each well of the plate and plates were incubated for an additional 6 h at 37° C., 5% CO2, and 95% humidity. Plates were read on a Synergy2 or equivalent reader (Biotek, Winooski VT) using an excitation of 540 nm and an emission of 600 nm. Data was analyzed using GraphPad Prism software (GraphPad, San Diego, CA) to calculate IC50 values.

GCN2 kinase = GCN2 kinase (Homo sapiens (Human), UniProt Q9P2K8); assay: Biochemical assay for GCN2 (TR-FRET kinase activity assay); conditions: read-out: GCN2 IC50; 1 mM ATP, 3-hour incubation
Procedure: Activity of GCN2 kinase was determined using a TR-FRET kinase activity assay (e.g. Riddle et al. Analytical Biochemistry (2006) 356(1) 108-116). Assays were conducted in 384-well plates (13 μL assay volume) using 2 nM GCN2 (Carna Biosciences), 130 nM GFP-EIf2α (Invitrogen), 0.2 mg/mL E. coli tRNA (sigma) and 1 mM ATP in kinase buffer (Invitrogen). Inhibition of GCN2 was measured by adding serial diluted test compound (final assay concentration of 0.5% DMSO) followed by a 3-hour incubation. Tb-peIF2α (pSer52) antibody (Invitrogen) (2 nM final assay concentration) in kinase buffer containing ETDA (final assay concentration of 20 mM) was added. After a 60 min incubation at room temperature, TR-FRET was monitored using an excitation wavelength of 340 nm and emission wavelengths of 490 nm and 520 nm. The emission ratio (520/490) at each compound concentration of was converted to percent inhibition using controls (i.e. reaction with no test compound and reaction with a known inhibitor) and IC50 values were calculated by fitting a four-parameter sigmoidal curve to the data using Prism (GraphPad software).

[1] = test system: ATF4 in CCRF-CEM leukemia cells (PERK); assay: CCRF-CEM TG ATF4 ELISA, phenotypic assay for cellular inhibition of PERK preactivated by thapsigargin; conditions: read-out: CCRF-CEM Thapsigargin ATF4 ELISA; Thapsigargin (1 μM) stimulated CCRF-CEM cells
Procedure: CCRF-CEM leukemia cells (catalog #CCL-116) were obtained from the American Type Culture Collection (ATTC, Manassas, VA). Briefly, cells were grown in RPMI-1640 medium supplemented with 10% heat-inactivated fetal bovine serum (Invitrogen, Carlsbad, CA) and 1% Penicillin/Streptomycin/L-Glutamine at 37° C., 5% CO2, and 95% humidity. Cells were expanded until reaching one million cells per mL at which time they were subcultured or harvested for assay use. One million five hundred thousand cells per well in 1 mL complete growth medium were dispensed into 12-well plates and incubated overnight. A serial dilution of test compound was added and cells were incubated at 37° C., 5% CO2, and 95% for three hours, then 1 μM thapsigargin was added and cells were incubated for an additional hour at 37° C., 5% CO2, and 95%. Cells were lysed then ATF4 levels were measured using an ELISA assay (Proteintech, Rosemont, IL). Absorbance was measured at 450 nm and 544 nM using a Synergy2 or equivalent reader (Biotek, Winooski VT). Data was analyzed using PRISM software (Graphpad, San Diego, CA) to calculate IC50 values.

Compound: CC(=O)Nc1cc2nc(C)c(-c3cccc(NS(=O)(=O)c4cc(Cl)cc(CO)c4Cl)c3F)cc2cn1
- IC50 (PERK kinase): < 100 nM
- IC50 (CCRF-CEM leukemia cells): < 100 nM
- IC50 (GCN2 kinase): < 100 nM
- IC50 [1]: 100 to 500 nM
